Experimental data taken from patent US11590126B2, “Benzamide compounds” (Recurium IP Holdings, LLC, priority 2018, dated 2023).

System: HIV-1 (IIIB strain) infected CD4 cells
Test: Measurement of caspase release in mock and HIV-1 (IIIB strain) infected CD4 cells
Assay type: cell-based, human
Details: primary CD4 T cells, HIV-1IIIb vs mock infected, FIG. 5

Structure (SMILES) | selectivity in killing HIV vs. mock infected cells (Caspase 3/7 cell death)
CC1(C)CCC(CN2CCN(c3ccc(C(=O)NS(=O)(=O)c4ccc(OCC5(F)CCOCC5)c([N+](=O)[O-])c4)c(Oc4cnc5[nH]ccc5c4)c3)CC2)=C(C23CC(C(F)F)(C2)C3)C1 [Example 36, 2-((1H-pyrrolo[2,3-b]pyridin-5-yl)oxy)-4-(4-((2-(3-(difluoromethyl)bicyclo[1.1.1]pentan-1-yl)-4,4-dimethylcyclohex-1-en-1-yl)methyl)piperazin-1-yl)-N-((4-((4-fluorotetrahydro-2H-pyran-4-yl)methoxy)-3-nitrophenyl)sulfonyl)benzamide] | selectivity in killing HIV vs. mock infected cells
CC1(C)CCC(CN2CCN(c3ccc(C(=O)NS(=O)(=O)c4ccc(NC[C@H]5CC[C@](C)(O)CC5)c([N+](=O)[O-])c4)c(Oc4cnc5[nH]ccc5c4)c3)CC2)=C(C23CC(C(F)F)(C2)C3)C1 [Example 34, 2-((1H-pyrrolo[2,3-b]pyridin-5-yl)oxy)-4-(4-((2-(3-(difluoromethyl)bicyclo[1.1.1]pentan-1-yl)-4,4-dimethylcyclohex-1-en-1-yl)methyl)piperazin-1-yl)-N-((4-((((1r,4r)-4-hydroxy-4-methylcyclohexyl)methyl)amino)-3-nitrophenyl)sulfonyl)benzamide] | selectivity in killing HIV vs. mock infected cells
